These are literature values, as cited in US20100112059A1, “Methods, Systems and Devices for Administration of Chlorine Dioxide” (priority 2008, published 2010).

The term pKa denotes the negative logarithm of the acid dissociation constant.

For this series the following is noted: chlorite ion/chlorous acid equilibrium; printed as pH 1.8.

On to chlorous acid, for which the pKa is on record as 1.8.
